Experimental findings from US20240060126 are described below.

Substitutions are numbered along the chain they refer to. Names and notes keep the numbering of the source.

The target in data set [1] is T1, MspA-((Del-L74/G75/D118/L119)D56F/E59R/L88N/D90N/D91N/Q126R/D134R/E139K)8.
T1 chain: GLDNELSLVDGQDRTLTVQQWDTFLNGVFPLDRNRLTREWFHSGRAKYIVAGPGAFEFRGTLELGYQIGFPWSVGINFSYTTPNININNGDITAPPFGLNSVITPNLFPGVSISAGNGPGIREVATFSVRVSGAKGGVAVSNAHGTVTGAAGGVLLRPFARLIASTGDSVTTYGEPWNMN

Data set [2] addresses T2, MspA-((Del-L74/G75/D118/L119)D56L/E59L/L88N/D90N/D91N/Q126R/D134R/E139K)8.
T2 chain: T1 chain with F56L, R59L

Data set [3] concerns the target T3, MspA-((Del-L74/G75/D118/L119)D56N/E59R/L88N/D90N/D91N/Q126R/D134R/E139K)8.
T3 chain: T1 chain with F56N

The target of data set [4] is T4, MspA-((Del-L74/G75/D118/L119)D56N/E59Y/L88N/D90N/D91N/Q126R/D134R/E139K)8.
T4 chain: T1 chain with F56N, R59Y

Data set [5] has as its target T5, MspA-((Del-L74/G75/D118/L119)G1A/D56N/E59F/L88N/D90N/D91N/Q126R/D134R/E139K)8.
T5 chain: T1 chain with G1A, F56N, R59F

B1: T4 Dda-E94C/C109A/C136A/A360C (SEQ ID NO: 24 with mutations E94C/C109A/C136A/A360C) (protein)
chain: MTFDDLTEGQKNAFNIVMKAIKEKKHHVTINGPAGTGKTTLTKFIIEALISTGETGIILAAPTHAAKKILSKLSGKEASTIHSILKINPVTYECNVLFEQKEVPDLAKARVLICDEVSMYDRKLFKILLSTIPPWATIIGIGDNKQIRPVDPGENTAYISPFFTHKDFYQCELTEVKRSNAPIIDVATDVRNGKWIYDKVVDGHGVRGFTGDTALRDFMVNYFSIVKSLDDLFENRVMAFTNKSVDKLNSIIRKKIFETDKDFIVGEIIVMQEPLFKTYKIDGKPVSEIIFNNGQLVRIIEAEYTSTFVKARGVPGEYLIRHWDLTVETYGDDEYYREKIKIISSDEELYKFNLFLGKTCETYKNWNKGGKAPWSDFWDAKSQFSKVKALPASTFHKAQGMSVDRAFIYTPCIHYADVELAQQLLYVGVTRGRYDVFYV
On to B1, for which the “% bases missed in construct X” value in data set [1], in data set [2], in data set [3], in data set [4] and in data set [5] was “less than 12% bases missed in construct X” each time.

B2: T4 Dda-E94C/C109A/C136A/K199L/A360C (protein)
chain: B1 chain with K199L
Regarding B2, the “% bases missed in construct X” value in data set [1] and in data set [5] was “less than 12% bases missed in construct X” throughout. Also, in data set [5], the “slips forward per kilobase” value is on record as “produced the lowest slips forward per kilobase”.
